Assay results as given in patent US20110224205A1 (NATIONAL TAIWAN UNIVERSITY, priority 2010, published 2011).

Assays:
[1] = tested on: EGFR, pEGFR, AKT, pAKT in CL1-5 cells; assay: Western blot EGFR signaling, CL1-5; type: cell-based, human; conditions: gefitinib 1 μM alone, curcumin 10 and 15 μM alone, or gefitinib 1 μM + curcumin 15 μM
[2] = tested on: EGFR protein in lung adenocarcinoma cells; assay: EGFR degradation (Western blot) and ubiquitination (immunoprecipitation); type: cell-based; conditions: gefitinib 10 μM alone; or gefitinib 1 μM + curcumin 10 μM
[3] = tested on: EGFR, pEGFR, AKT, pAKT in A549 cells; assay: Western blot EGFR signaling, A549; type: cell-based, human; conditions: gefitinib 1 μM alone, curcumin 10 and 15 μM alone, or gefitinib 1 μM + curcumin 15 μM
[4] = tested on: pEGFR, pAKT in H1299 cells; assay: Western blot EGFR signaling, H1299; type: cell-based, human; conditions: gefitinib 1 μM alone, curcumin 10 and 15 μM alone, or gefitinib 1 μM + curcumin 15 μM

SMILES: COc1cc2ncnc(Nc3ccc(F)c(Cl)c3)c2cc1OCCCN1CCOCC1 [gefitinib, N-(3-Chloro-4-fluoro-phenyl)-7-methoxy-6-(3-morpholin-4-ylpropoxy)quinazolin-4-amine, reference compound]
- pEGFR and pAKT (FIG. 4B) [1]: minimal suppressive effect
- EGFR ubiquitination [2]: didn't alter the EGFR ubiquitin level
- pEGFR and pAKT (FIG. 4B) [3]: minimal suppressive effect
- pEGFR and pAKT (FIG. 4B) [4]: minimal suppressive effect
